From patent US20250195530A1, “POLQ INHIBITORS” (ASTRAZENECA AB, priority 2022, published 2025) come the findings set out here.

Sequences of proteins named here, by UniProt entry; tags and fusion partners are left off. Residues count along the entry.
UniProt O75417, 1780-2590: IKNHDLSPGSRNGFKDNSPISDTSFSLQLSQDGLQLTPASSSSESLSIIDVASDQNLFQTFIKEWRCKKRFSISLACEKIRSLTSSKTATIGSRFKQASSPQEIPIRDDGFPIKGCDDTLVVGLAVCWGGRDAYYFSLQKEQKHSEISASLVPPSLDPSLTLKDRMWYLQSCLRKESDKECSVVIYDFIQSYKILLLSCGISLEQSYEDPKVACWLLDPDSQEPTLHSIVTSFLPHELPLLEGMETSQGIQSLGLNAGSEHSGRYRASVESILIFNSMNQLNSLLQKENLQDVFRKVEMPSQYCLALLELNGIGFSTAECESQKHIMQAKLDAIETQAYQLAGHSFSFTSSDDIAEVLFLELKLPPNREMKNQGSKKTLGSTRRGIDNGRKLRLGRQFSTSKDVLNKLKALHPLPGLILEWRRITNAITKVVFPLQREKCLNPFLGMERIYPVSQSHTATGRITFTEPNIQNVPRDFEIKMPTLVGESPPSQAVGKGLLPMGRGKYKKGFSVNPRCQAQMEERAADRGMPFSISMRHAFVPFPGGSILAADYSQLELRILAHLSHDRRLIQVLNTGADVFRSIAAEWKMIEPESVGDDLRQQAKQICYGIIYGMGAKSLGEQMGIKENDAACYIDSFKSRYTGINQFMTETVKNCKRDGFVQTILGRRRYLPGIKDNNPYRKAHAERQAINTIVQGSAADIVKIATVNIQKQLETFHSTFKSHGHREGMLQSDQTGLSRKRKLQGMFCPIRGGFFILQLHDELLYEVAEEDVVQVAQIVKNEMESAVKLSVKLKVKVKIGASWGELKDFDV

For the test, the target named is isolated polymerase domain (I1780-V2590) of DNA polymerase theta (Polθ) (Homo sapiens (Human), UniProt O75417). The test is described as follows: biochemical.

Molecules are shown by their SMILES.

`Cc1ccnc(Cn2c(-c3ccc(C(=O)N4CCC[C@H]4CO)cc3Cl)nc3c(OC4(C)CC4)ncnc32)c1` [Example T466, (S)-(3-chloro-4-(6-(1-methylcyclopropoxy)-9-((4-methylpyridin-2-yl)methyl)-9H-purin-8-yl)phenyl)(2-(hydroxymethyl)pyrrolidin-1-yl)methanone] showed an IC50 of 39.8 nM.

As to `Cc1ccnc(Cn2c(-c3ccc(OCC(=O)N4CCCC4)cc3Cl)nc3c(OC4(C)CC4)ncnc32)c1` [Example T467, 2-(3-chloro-4-(6-(1-methylcyclopropoxy)-9-((4-methylpyridin-2-yl)methyl)-9H-purin-8-yl)phenoxy)-1-(pyrrolidin-1-yl)ethan-1-one], the IC50 was 10 nM. `Cc1ccnc(Cn2c(-c3ccc(OCCN4CCCC4=O)cc3Cl)nc3c(OC4(C)CC4)ncnc32)c1` [Example T469, 1-(2-(3-chloro-4-(6-(1-methylcyclopropoxy)-9-((4-methylpyridin-2-yl)methyl)-9H-purin-8-yl)phenoxy)ethyl)pyrrolidin-2-one] showed a half-inhibitory concentration (IC50) of 5.01 nM. To `Cc1ccnc(Cn2c(-c3ccc(CC(=O)N4CC(C)(O)C4)cc3Cl)nc3c(OC4(C)CC4)ncnc32)c1` [Example T470, 2-(3-chloro-4-(6-(1-methylcyclopropoxy)-9-((4-methylpyridin-2-yl)methyl)-9H-purin-8-yl)phenyl)-1-(3-hydroxy-3-methylazetidin-1-yl)ethan-1-one] belongs 6.31 nM; to `CCC(=O)N1CC(Oc2ccc(-c3nc4c(OC5(C)CC5)ncnc4n3Cc3cc(C)ccn3)c(Cl)c2)C1` [Example T471, 1-(3-(3-chloro-4-(6-(1-methylcyclopropoxy)-9-((4-methylpyridin-2-yl)methyl)-9H-purin-8-yl)phenoxy)azetidin-1-yl)propan-1-one], 5.01 nM. In turn, `CC(=O)N1CC[C@@H](Oc2ccc(-c3nc4c(OC5(C)CC5)ncnc4n3Cc3cc(C)ccn3)c(Cl)c2)C1` [Example T472, (R)-1-(3-(3-chloro-4-(6-(1-methylcyclopropoxy)-9-((4-methylpyridin-2-yl)methyl)-9H-purin-8-yl)phenoxy)pyrrolidin-1-yl)ethan-1-one] had an IC50 of 7.94 nM. To `Cc1ccnc(Cn2c(-c3ccc(OCC(=O)N4CC[C@@H](O)C4)cc3Cl)nc3c(OC4(C)CC4)ncnc32)c1` [Example T473, (R)-2-(3-chloro-4-(6-(1-methylcyclopropoxy)-9-((4-methylpyridin-2-yl)methyl)-9H-purin-8-yl)phenoxy)-1-(3-hydroxypyrrolidin-1-yl)ethan-1-one] belongs 6.31 nM.

The compound `Cc1ccnc(Cn2c(-c3ccc(OCCN4CC[C@@H](O)C4=O)cc3Cl)nc3c(OC4(C)CC4)ncnc32)c1` [Example T474, (R)-1-(2-(3-chloro-4-(6-(1-methylcyclopropoxy)-9-((4-methylpyridin-2-yl)methyl)-9H-purin-8-yl)phenoxy)ethyl)-3-hydroxypyrrolidin-2-one] had an IC50 of 7.94 nM. Compound `Cc1ccnc(Cn2c(-c3ccc(OCC(=O)N4CCOCC4)cc3Cl)nc3c(OC4(C)CC4)ncnc32)c1` [Example T475, 2-(3-chloro-4-(6-(1-methylcyclopropoxy)-9-((4-methylpyridin-2-yl)methyl)-9H-purin-8-yl)phenoxy)-1-morpholinoethan-1-one] gave an IC50 of 10 nM. The same measure for `Cc1ccnc(Cn2c(-c3ccc(OCC(=O)NC4(C)COC4)cc3Cl)nc3c(OC4(C)CC4)ncnc32)c1` [Example T476, 2-(3-chloro-4-(6-(1-methylcyclopropoxy)-9-((4-methylpyridin-2-yl)methyl)-9H-purin-8-yl)phenoxy)-N-(3-methyloxetan-3-yl)acetamide]: 7.94 nM; for `Cc1ccnc(Cn2c(-c3ccc(OCC(=O)N4CC(C)(O)C4)cc3Cl)nc3c(OC4(C)CC4)ncnc32)c1` [Example T477, 2-(3-chloro-4-(6-(1-methylcyclopropoxy)-9-((4-methylpyridin-2-yl)methyl)-9H-purin-8-yl)phenoxy)-1-(3-hydroxy-3-methylazetidin-1-yl)ethan-1-one]: 10 nM; for `Cc1ccnc(Cn2c(-c3ccc(OCC(=O)N[C@@H]4CCOC4)cc3Cl)nc3c(OC4(C)CC4)ncnc32)c1` [Example T478, (R)-2-(3-chloro-4-(6-(1-methylcyclopropoxy)-9-((4-methylpyridin-2-yl)methyl)-9H-purin-8-yl)phenoxy)-N-(tetrahydrofuran-3-yl)acetamide]: 7.94 nM. The same measure for `Cc1ccnc(Cn2c(-c3ccc(OCC(=O)NC4CC(O)C4)cc3Cl)nc3c(OC4(C)CC4)ncnc32)c1` (centres unmarked) [Example T479, 2-(3-chloro-4-(6-(1-methylcyclopropoxy)-9-((4-methylpyridin-2-yl)methyl)-9H-purin-8-yl)phenoxy)-N-(3-hydroxycyclobutyl)acetamide]: 7.94 nM.

In the case of `Cc1ccnc(Cn2c(-c3ccc(OCC(=O)N(C)C4COC4)cc3Cl)nc3c(OC4(C)CC4)ncnc32)c1` [Example T480, 2-(3-chloro-4-(6-(1-methylcyclopropoxy)-9-((4-methylpyridin-2-yl)methyl)-9H-purin-8-yl)phenoxy)-N-methyl-N-(oxetan-3-yl)acetamide], inhibition was half-maximal at 10 nM (IC50).

With `Cc1ccnc(Cn2c(-c3ccc(OCCN4CCOCC4=O)cc3Cl)nc3c(OC4(C)CC4)ncnc32)c1` [Example T481, 4-(2-(3-chloro-4-(6-(1-methylcyclopropoxy)-9-((4-methylpyridin-2-yl)methyl)-9H-purin-8-yl)phenoxy)ethyl)morpholin-3-one], the IC50 is 6.31 nM. To `Cc1ccnc(Cn2c(-c3ccc(OC4CN(C(=O)[C@@H](C)O)C4)cc3Cl)nc3c(OC4(C)CC4)ncnc32)c1` [Example T482, (R)-1-(3-(3-chloro-4-(6-(1-methylcyclopropoxy)-9-((4-methylpyridin-2-yl)methyl)-9H-purin-8-yl)phenoxy)azetidin-1-yl)-2-hydroxypropan-1-one] belongs 5.01 nM; to `Cc1ccnc(Cn2c(-c3ccc(O[C@H]4CCN(C(=O)CO)C4)cc3Cl)nc3c(OC4(C)CC4)ncnc32)c1` [Example T483, (S)-1-(3-(3-chloro-4-(6-(1-methylcyclopropoxy)-9-((4-methylpyridin-2-yl)methyl)-9H-purin-8-yl)phenoxy)pyrrolidin-1-yl)-2-hydroxyethan-1-one], 7.94 nM. Regarding `CC1(Oc2ncnc3c2nc(-c2ccc(OCCN4CCNCC4)cc2Cl)n3Cc2ccc(C#N)cn2)CC1` [Example T484, 6-((8-(2-chloro-4-(2-(piperazin-1-yl)ethoxy)phenyl)-6-(1-methylcyclopropoxy)-9H-purin-9-yl)methyl)nicotinonitrile], half-maximal inhibition (IC50) required 100 nM. `CC1(Oc2ncnc3c2nc(-c2ccc(OCCN4C[C@H]5C[C@@H]4CN5)cc2Cl)n3Cc2cc(Cl)ccn2)CC1` [Example T485, 8-(4-(2-((1R,4R)-2,5-diazabicyclo[2.2.1]heptan-2-yl)ethoxy)-2-chlorophenyl)-9-((4-chloropyridin-2-yl)methyl)-6-(1-methylcyclopropoxy)-9H-purine] gave an IC50 of 5.01 nM. To `CC1(Oc2ncnc3c2nc(-c2ccc(OCCN4CC5(CCN5)C4)cc2Cl)n3Cc2cc(Cl)ccn2)CC1` [Example T486, 8-(4-(2-(1,6-diazaspiro[3.3]heptan-6-yl)ethoxy)-2-chlorophenyl)-9-((4-chloropyridin-2-yl)methyl)-6-(1-methylcyclopropoxy)-9H-purine] belongs 6.31 nM.
